Laboratory results as given in article PMC8691691 (ACS Chemical Neuroscience, 2021).

Assays:
GlyT2 F478Y mutant = biological target: T1, GlyT2 F478Y mutant (Rattus norvegicus, UniProt P58295, F478Y); test: [3H]glycine transport by GlyT2 mutant in COS7 cells; format: cell-based
T1 construct: expressed in transfected cells; host or cells: COS7
T1 sequence (P58295 1-799 F478Y): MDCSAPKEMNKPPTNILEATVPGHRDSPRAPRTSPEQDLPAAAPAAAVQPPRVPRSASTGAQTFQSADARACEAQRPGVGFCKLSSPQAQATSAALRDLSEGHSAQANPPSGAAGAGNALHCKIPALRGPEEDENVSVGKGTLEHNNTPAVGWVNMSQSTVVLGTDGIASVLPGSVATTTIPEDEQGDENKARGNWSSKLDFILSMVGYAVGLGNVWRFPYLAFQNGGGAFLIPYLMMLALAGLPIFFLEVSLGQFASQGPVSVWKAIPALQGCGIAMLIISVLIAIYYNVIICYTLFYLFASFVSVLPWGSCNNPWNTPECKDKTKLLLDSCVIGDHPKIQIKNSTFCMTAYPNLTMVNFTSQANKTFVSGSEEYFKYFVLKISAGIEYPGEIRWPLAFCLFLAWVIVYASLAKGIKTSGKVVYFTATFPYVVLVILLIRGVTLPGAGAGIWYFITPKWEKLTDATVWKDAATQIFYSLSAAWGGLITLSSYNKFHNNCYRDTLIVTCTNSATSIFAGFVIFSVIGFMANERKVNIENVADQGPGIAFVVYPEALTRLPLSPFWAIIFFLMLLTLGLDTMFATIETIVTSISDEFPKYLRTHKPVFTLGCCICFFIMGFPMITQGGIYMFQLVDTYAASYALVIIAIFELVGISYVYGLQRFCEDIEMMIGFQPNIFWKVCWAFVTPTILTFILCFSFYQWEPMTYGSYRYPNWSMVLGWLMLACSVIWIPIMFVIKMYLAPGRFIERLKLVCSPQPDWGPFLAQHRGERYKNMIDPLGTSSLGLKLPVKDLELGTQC
Excerpt: (§1) To validate the predicted interactions between the inhibitors and GlyT2, we used systematic site-directed mutagenesis to construct substitution mutants of the potential residues involved in ligand binding. […] The GlyT2 residues predicted to interact with the inhibitors through its side chain were replaced by amino acids expected to force the loss of the interaction. In the cases where the interaction occurred through the backbone, the inserted amino acid sought to alter the disposition of the substituted residue to lose the coordination. […] Most of the mutants were active, although depicted lower activity as compared to the wild-type. […] These two residues are preserved throughout the NSS family, and Tyr-289 has proven to have an important structural role in stabilizing the unwound portion of the TM1 helix, whereas Tyr-209 has a key role in S1 site formation through its interaction with Ser-481.[25],[30],[33] Other residues such as Leu-213 or Ser-479 are involved in the formation of the glycine-binding site and Na^+-binding site, respectively.
(§2) Substitution mutants were generated with the QuikChange II Site-Directed Mutagenesis kit (Agilent Technologies, Santa Clara, CA, USA), using rGlyT2 or rGlyT1 subcloned in pCDNA3.[47] The complete coding region of all of the constructs was sequenced to verify that only the desired mutation had been introduced. Plasmids from two independent Escherichia coli colonies were expressed in eukaryotic cells as indicated below, and [^3H]glycine transport and/or immunodetection was performed for verification. COS7 cells were grown and transfected using Turbofect Transfection Reagent (Thermo Fisher Scientific, Waltham, MA, USA), following the manufacturer’s protocol (2 μL reagent/μg of DNA). Cells were incubated for 48 h at 37 °C until used.
(§3) COS7 cells were washed and incubated at 37 °C in HEPES-buffered saline (HBS, in mM: 150 NaCl, 10 HEPES-Tris, pH 7.4, 1 CaCl2, 5 KCl, 1 MgSO4, 10 glucose) containing 2 μCi/mL [2-^3H]glycine (1.6 TBq/mmol; PerkinElmer Life Sciences), at 10 μM final glycine concentration if not otherwise stated.[48] At the end of the desired time (usually 10 min), reactions were washed and terminated by aspiration. Protein concentration (Bradford) and [2-^3H]glycine levels (liquid scintillation, LKB 1219 Rackbeta) were determined. Glycine accumulation measured in mock-transfected cells was subtracted from that of the transporter-transfected cells and normalized by the protein concentration. Kinetic analyses were performed by varying glycine concentration in the uptake medium between 0.5 and 500 μM. […] The determinations of the IC50 were performed initially by diluting compounds by log steps with the vehicle from 1 nM to 1 μM. Then, exact IC50 values were determined by means of 8-point concentration curves performed over a suitable range using half log dilutions with the vehicle. A nonlinear curve fitting method was used to obtain IC50 values using Graphpad Prism software, version 6.0, Graphpad, San Diego, CA, USA.

GlyT2 L576I mutant = biological target: T2, GlyT2 L576I mutant (Rattus norvegicus, UniProt P58295, L576I); test: as above; format: cell-based
T2 construct: expressed in transfected cells; host or cells: COS7
T2 sequence (P58295 1-799 L576I): T1 sequence (P58295 1-799 F478Y) with Y478F, L576I
Excerpt: as §1, §2, §3

NCC(=O)O [Gly, glycine] gave an EC50 (GlyT2 F478Y mutant) of 290 ± 13 µM and an EC50 (GlyT2 L576I mutant) of 372 ± 40 µM.

Where a chain is given by its changes, count along the chain named.
